The list shows a part of the results, in another mix than the full data. Results filed as inconclusive are left out. Entries that show only a call come without a potency. The source made the active and inactive calls. Calls come from the whole dose curve; tested in HEK293 cells.
Potency is the fitted concentration of half-maximal effect.

A short description of this experiment: qHTS for Inhibitors of binding or entry into cells for Marburg Virus. Particulars: Marburg virus pseudotype entry/binding inhibition, cell-based; series mostly up to 49.2 µM.
Regarding `CCC(=O)N(c1ccccc1)C1(COC)CCN(CCn2nnn(CC)c2=O)CC1`, the Potency result was “inactive”.
For the compound `CCC(=O)N(c1ccccc1)C1(COC)CCN(CCc2cccs2)CC1`, the Potency was active: 25.1 µM.
For the compound `CCC(=O)N(c1ccccc1)C1CCN(CCc2ccccc2)CC1`, the Potency result is “inactive”.

(Values after PubChem BioAssay AID720532 (National Center for Advancing Translational Sciences (NCATS), 2013).)
